Measurements taken from PubChem BioAssay AID602274 (Sanford-Burnham Center for Chemical Genomics, 2012).
The entries are a selection whose mix differs from that of the whole data set. Activity calls are given as the source filed them. Rule as the data show it: active = survival enhancement above about 18%; inactive = the rest.

Experiment: enhancers of single-cell hiPSC survival, primary screen, ATPlite luminescence (AID 602274);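 also: cells exposed to compounds for 16 hours before the ATP read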
Details: at 20 µM, active compounds read high, 100% = ROCK inhibitor wells, 0% = DMSO

SMILES | survival enhancement
O=c1[nH]c2ccccc2n1C1CCN(C(c2cccs2)c2nnnn2C2CCCC2)CC1 (stereo unspecified) | inactive: 1.3%
O=C(OC1CN2CCC1CC2)C1c2ccccc2C=Cc2ccccc21 (stereo unspecified) | inactive: 3.1%
CCCCn1nnnc1C(c1cccc(OC)c1OC)N1CCC(n2c(=O)[nH]c3ccccc32)CC1 (stereo unspecified) | inactive: 0.7%
COc1cccc(C(c2nnnn2C(C)(C)C)N2CCC(n3c(=O)[nH]c4ccccc43)CC2)c1OC (stereo unspecified) | inactive: 0.1%
CCOC(=O)N1CCC(Nc2ccc(C)cc2)CC1 | inactive: -0.1%
N/C(=N\O)c1c(N)no[n+]1[O-] | inactive: 0.3%
O=c1[nH]c2ccccc2n1C1CCN(C(c2cccs2)c2nnnn2C2CCCCC2)CC1 (stereo unspecified) | inactive: -0.4%
O=c1[nH]c2ccccc2n1C1CCN(C(c2ccnc3ccccc23)c2nnnn2C2CCCC2)CC1 (stereo unspecified) | inactive: -0.7%
COc1ccc(C(=O)NCC2(N3CCOCC3)CCCCC2)cc1OC | inactive: -1.3%
COc1cc(C(=O)NCC2(N3CCOCC3)CCCCC2)cc(OC)c1C | inactive: 0.1%
CCCCn1nnnc1C(c1ccccc1)N1CCC(n2c(=O)[nH]c3ccccc32)CC1 (stereo unspecified) | inactive: -0.3%
O=C(NCC1(N2CCOCC2)CCCCC1)c1cc(Br)ccc1Cl | inactive: -0.1%
CC(C)(C)n1nnnc1C(c1cccc2ccccc12)N1CCC(n2c(=O)[nH]c3ccccc32)CC1 (stereo unspecified) | inactive: 0.7%
CN(C)C1(CNC(=O)c2cccc(C#N)c2)CCCCC1 | inactive: 0.6%
CCCN1CCC(Nc2cc(OC)cc(OC)c2)CC1 | inactive: -0.4%
O=c1[nH]c2ccccc2n1C1CCN(C(c2ccccc2)c2nnnn2C2CCCC2)CC1 (stereo unspecified) | inactive: -1.2%
Cc1cc(N(CCCl)CCCl)ccc1C=O | inactive: 0.6%
c1ccc(CN2CCC(Nc3ccccc3)CC2)cc1 | inactive: -0.7%
N#Cc1ccc(C(=O)NCC2(N3CCCCC3)CCCCC2)cc1 | inactive: 0.1%
CC(C)(C)OC(=O)N1CCC(N(C(=O)c2ccccc2)c2ccc(Cl)cc2)CC1 | inactive: 0.2%
Cn1c(=O)[nH]cc(N(CCCl)CCCl)c1=O | inactive: -2.3%

SMILES | survival enhancement
CN(C)c1ccc(C(=O)NCC2(N3CCCCC3)CCCCC2)cc1 | inactive: 0.2%
O=C(NCC1(N2CCCCC2)CCCCC1)c1ccco1 | inactive: 0.7%
CC(C)(C)n1nnnc1C(c1ccnc2ccccc12)N1CCC(n2c(=O)[nH]c3ccccc32)CC1 (stereo unspecified) | inactive: -0.9%
COc1ccc(C(c2nnnn2C2CCCCC2)N2CCC(n3c(=O)[nH]c4ccccc43)CC2)cc1 (stereo unspecified) | inactive: -0.8%
CCN1CCC(Nc2cccc(F)c2)CC1 | inactive: -2.8%
Cc1ccccc1NC1(C#N)CCN(Cc2ccccc2)CC1 | inactive: 2.2%
Fc1ccccc1NC1CCN(Cc2ccccc2)CC1 | inactive: -0.4%
Cc1ccc(C(=O)NCC2(N3CCCCC3)CCCCC2)o1 | inactive: -0.3%
Cc1ccc(NC2(C#N)CCN(Cc3ccccc3)CC2)cc1 | inactive: -1.2%
CCC(c1nnnn1C1CCCCC1)N1CCC(n2c(=O)[nH]c3ccccc32)CC1 (stereo unspecified) | inactive: 1.7%
CC(=O)N(c1ccccc1)C1CCNCC1 | inactive: -3.5%
COc1cccc(C(c2nnnn2C2CCCCC2)N2CCC(n3c(=O)[nH]c4ccccc43)CC2)c1OC (stereo unspecified) | inactive: -0.5%
O=c1[nH]c2ccccc2n1C1CCN(C(c2ccnc3ccccc23)c2nnnn2C2CCCCC2)CC1 (stereo unspecified) | inactive: 0.2%
COc1cc(OC)cc(C(=O)NCC2(N3CCCCC3)CCCCC2)c1 | inactive: -0.5%
CN1CCC(Nc2ccc(Cl)cc2)CC1 | inactive: 0.7%
COc1cccc(C(=O)N(c2cc(C)cc(C)c2)C2CCN(C(=O)OC(C)(C)C)CC2)c1 | inactive: -0.2%
COc1cc(OC)cc(C(=O)NCC2(N3CCOCC3)CCCCC2)c1 | inactive: -0.6%
COc1cccc(C(c2nnnn2C2CCCC2)N2CCC(n3c(=O)[nH]c4ccccc43)CC2)c1OC (stereo unspecified) | inactive: 10.6%
CCC(CO)(C(=O)OC1CN2CCC1CC2)c1ccccc1 (stereo unspecified) | inactive: -2.3%
NN(c1ccccc1)C1CCN(CCc2ccccc2)CC1 | inactive: -0.8%
O=C(O)C1(Nc2ccccc2)CCN(Cc2ccccc2)CC1 | inactive: 1.2%

SMILES | survival enhancement
CC(C)(C)OC(=O)N1CCC(Nc2ccccc2)CC1 | inactive: -0.4%
CCCOc1ccc(C(=O)NCC2(N(C)C)CCCCC2)cc1 | inactive: -0.4%
O=c1[nH]c2ccccc2n1C1CCN(C(c2cc3ccccc3o2)c2nnnn2C2CCCC2)CC1 (stereo unspecified) | inactive: 5.7%
CN1CCC(Nc2ccc(F)c(Cl)c2)CC1 | inactive: -0.3%
CCOc1ncccc1C(=O)NCC1(N2CCOCC2)CCCCC1 | inactive: -3.2%
COc1ccc(Cl)cc1C(=O)NCC1(N2CCOCC2)CCCCC1 | inactive: -0.4%
O=c1[nH]c2ccccc2n1C1CCN(C(c2cc3ccccc3o2)c2nnnn2C2CCCCC2)CC1 (stereo unspecified) | inactive: 2.3%
O=C(OC1CN2CCC1CC2)C1c2ccccc2Oc2ccccc21 (stereo unspecified) | inactive: 2.6%
O=C(NCC1(N2CCCCC2)CCCCC1)c1ccc(Cl)s1 | inactive: -3%
N#CC1(Nc2ccccc2)CCN(Cc2ccccc2)CC1 | inactive: -0.6%
CCCCn1nnnc1C(c1ccc(OC)cc1)N1CCC(n2c(=O)[nH]c3ccccc32)CC1 (stereo unspecified) | inactive: -1.9%
CCOC(=O)N1CCC(Nc2ccc(OC)cc2)CC1 | inactive: 1.3%
Cc1cc(C)cc(N(C(=O)c2ccccc2)C2CCN(C(=O)OC(C)(C)C)CC2)c1 | inactive: 0.9%
O=c1[nH]c2ccccc2n1C1CCN(C(c2ccccc2OC(F)(F)F)c2nnnn2C2CCCCC2)CC1 (stereo unspecified) | inactive: 1.2%
O=C(NCC1(N2CCCCC2)CCCCC1)c1ccc(Cl)nc1 | inactive: -0.1%
O=C(NCC1(N2CCOCC2)CCCCC1)c1cc2ccccc2o1 | inactive: 5.7%
Cc1cccc(NC2(C#N)CCN(Cc3ccccc3)CC2)c1 | inactive: -1.9%
CSc1ccccc1C(=O)NCC1(N2CCCCC2)CCCCC1 | inactive: 0.5%
CCC(c1nnnn1C1CCCC1)N1CCC(n2c(=O)[nH]c3ccccc32)CC1 (stereo unspecified) | inactive: -1.9%
